Experimental data reported in US20260041781A1, “NOVEL GLUCOCORTICOID RECEPTOR AGONISTS AND IMMUNOCONJUGATES THEREOF” (priority 2022, published 2026).

The chains behind the UniProt entries cited, without tags or fusion partners. Residues count along the entry.
UniProt P04150, 524-758 limits assumed: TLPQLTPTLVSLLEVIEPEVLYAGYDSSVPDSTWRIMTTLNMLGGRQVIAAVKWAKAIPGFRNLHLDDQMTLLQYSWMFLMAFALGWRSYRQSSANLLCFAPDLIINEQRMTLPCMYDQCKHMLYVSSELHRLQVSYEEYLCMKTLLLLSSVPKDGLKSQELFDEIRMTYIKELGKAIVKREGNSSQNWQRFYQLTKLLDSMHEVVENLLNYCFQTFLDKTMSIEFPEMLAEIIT

Target: GR LBD (ligand binding domain) (Homo sapiens, UniProt P04150)
Assay: GR Reporter Assay (pBind assay, pG5luc luciferase reporter, agonist mode)
Format: cell-based
Details: HEK293 cells transiently transfected with pG5luc and GR LBD

With `CN(C)C(=O)[C@@]12O[C@H](c3cccc(N)c3)O[C@@H]1C[C@H]1[C@@H]3C[C@H](F)C4=CC(=O)C=C[C@]4(C)[C@@]3(F)[C@@H](O)C[C@@]12C` the EC50 was < 5 nM.
In the case of `CN(C)C(=O)[C@@]12O[C@@H](c3cccc(N)c3)O[C@@H]1C[C@H]1[C@@H]3C[C@H](F)C4=CC(=O)C=C[C@]4(C)[C@@]3(F)[C@@H](O)C[C@@]12C`, the EC50 is reported as < 5 nM.
